From PMC10631289 (Bioorganic & medicinal chemistry letters, 2023)

Sequences of proteins named here, by UniProt entry; tags and fusion partners are left off.
UniProt P46095, whole entry R220Y: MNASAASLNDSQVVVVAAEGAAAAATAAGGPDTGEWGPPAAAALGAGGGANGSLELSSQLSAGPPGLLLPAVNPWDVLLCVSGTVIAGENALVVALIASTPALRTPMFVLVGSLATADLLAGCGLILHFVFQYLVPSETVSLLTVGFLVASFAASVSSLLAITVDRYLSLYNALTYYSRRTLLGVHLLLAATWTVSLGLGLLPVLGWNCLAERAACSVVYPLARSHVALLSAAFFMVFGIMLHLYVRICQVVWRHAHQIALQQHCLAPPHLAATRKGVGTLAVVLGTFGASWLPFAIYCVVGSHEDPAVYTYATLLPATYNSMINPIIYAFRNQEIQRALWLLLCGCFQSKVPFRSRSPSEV
UniProt P46089, whole entry Y188R: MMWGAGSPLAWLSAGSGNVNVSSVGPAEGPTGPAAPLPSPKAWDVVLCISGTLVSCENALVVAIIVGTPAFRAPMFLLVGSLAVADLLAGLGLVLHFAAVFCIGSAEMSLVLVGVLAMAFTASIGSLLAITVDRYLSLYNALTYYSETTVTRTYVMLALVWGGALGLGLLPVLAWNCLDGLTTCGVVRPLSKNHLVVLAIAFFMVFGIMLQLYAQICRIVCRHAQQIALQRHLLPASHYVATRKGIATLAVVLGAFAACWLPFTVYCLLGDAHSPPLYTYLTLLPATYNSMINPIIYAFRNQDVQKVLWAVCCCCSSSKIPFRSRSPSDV

Legend:
GPR6 R220Y mutant = GPR6 R220Y mutant (Homo sapiens, UniProt P46095, R220Y); experiment: cAMP accumulation, GPR6 R220Y mutant receptor; format: cell-based
GPR3 Y188R mutant = GPR3 Y188R mutant (Homo sapiens, UniProt P46089, Y188R); settings: compared to wildtype GPR3
hGPR6 = hGPR6 (Homo sapiens, UniProt P46095); settings: HEK GPR6 cell line; listed as DPI
hGPR12 = target: T1, hGPR12 (Homo sapiens, UniProt P47775); settings: HEK GPR12 cell line; listed as DPI
T1 sequence (P47775 1-334): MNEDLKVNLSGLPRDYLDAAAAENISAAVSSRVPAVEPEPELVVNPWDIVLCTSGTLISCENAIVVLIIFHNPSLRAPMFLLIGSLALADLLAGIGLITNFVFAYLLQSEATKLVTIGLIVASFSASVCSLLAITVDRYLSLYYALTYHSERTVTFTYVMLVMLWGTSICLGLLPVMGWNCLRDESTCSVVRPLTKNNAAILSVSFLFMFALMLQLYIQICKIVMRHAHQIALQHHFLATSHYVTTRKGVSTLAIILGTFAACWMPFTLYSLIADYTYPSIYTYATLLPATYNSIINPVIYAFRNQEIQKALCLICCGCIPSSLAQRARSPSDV

[Cl-].c1ccc2c(c1)[I+]c1ccccc1-2 [Compound 1, diphenyleneiodonium (DPI) chloride]
activity in GPR6 R220Y mutant (GPR6 R220Y mutant): did not confer activity
activity in GPR6 R220Y mutant (GPR6 R220Y mutant; listed as DPI): no activity
cAMP accumulation in GPR3 Y188R mutant (GPR3 Y188R mutant): able to increase cAMP accumulation in the GPR3 Y188R mutant similar to the wildtype receptor
cAMP accumulation in GPR3 Y188R mutant (GPR3 Y188R mutant; listed as DPI): retained activity
increase of cAMP response over basal levels (hGPR6): but not GPR6, GPR12, or in HEK293 cells alone
increase of cAMP response over basal levels (hGPR12): but not GPR6, GPR12, or in HEK293 cells alone

Like-named read-outs stand apart in the source and are kept apart here.
